# Laboratory results published in ChEMBL document CHEMBL3232856, “Endomorphin analogues with mixed μ-opioid (MOP) receptor agonism/δ-opioid (DOP) receptor antagonism and lacking β-arrestin2 recruitment activity” (Bioorg Med Chem, 2014).
# Chains of the proteins cited; added tags and fusions are not shown.
# UniProt P35372, whole entry: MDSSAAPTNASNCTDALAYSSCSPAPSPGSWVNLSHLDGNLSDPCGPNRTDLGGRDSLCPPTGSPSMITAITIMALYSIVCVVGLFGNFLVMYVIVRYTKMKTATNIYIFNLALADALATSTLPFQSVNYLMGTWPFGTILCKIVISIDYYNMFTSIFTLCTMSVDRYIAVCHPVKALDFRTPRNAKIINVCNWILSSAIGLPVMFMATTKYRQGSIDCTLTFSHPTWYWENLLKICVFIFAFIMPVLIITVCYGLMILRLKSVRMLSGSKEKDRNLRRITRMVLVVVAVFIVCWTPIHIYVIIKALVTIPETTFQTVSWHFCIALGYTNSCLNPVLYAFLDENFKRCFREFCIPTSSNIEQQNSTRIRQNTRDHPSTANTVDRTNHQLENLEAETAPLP
# Molecular target: Mu-type opioid receptor (Homo sapiens, UniProt P35372)
# Assay: Agonist activity at GFP-fused mu opioid receptor (unknown origin) expressed in HEK293 cells assessed as recruitment of beta-arrestin-2 after 10 mins by BRET assay
# Assay type: cell-based
smiles,measurement,value
CC(C)C[C@@H](NC(=O)[C@H](Cc1ccccc1)NC(=O)CNC(=O)[C@@H](C)NC(=O)[C@@H](N)Cc1ccc(O)cc1)C(=O)O [DADLE],EC50,1.3 µM
